Source: PMC12707061 (National Science Review, 2025)

Sequences of proteins named here, by UniProt entry; tags and fusion partners are left off.
UniProt P31645, whole entry: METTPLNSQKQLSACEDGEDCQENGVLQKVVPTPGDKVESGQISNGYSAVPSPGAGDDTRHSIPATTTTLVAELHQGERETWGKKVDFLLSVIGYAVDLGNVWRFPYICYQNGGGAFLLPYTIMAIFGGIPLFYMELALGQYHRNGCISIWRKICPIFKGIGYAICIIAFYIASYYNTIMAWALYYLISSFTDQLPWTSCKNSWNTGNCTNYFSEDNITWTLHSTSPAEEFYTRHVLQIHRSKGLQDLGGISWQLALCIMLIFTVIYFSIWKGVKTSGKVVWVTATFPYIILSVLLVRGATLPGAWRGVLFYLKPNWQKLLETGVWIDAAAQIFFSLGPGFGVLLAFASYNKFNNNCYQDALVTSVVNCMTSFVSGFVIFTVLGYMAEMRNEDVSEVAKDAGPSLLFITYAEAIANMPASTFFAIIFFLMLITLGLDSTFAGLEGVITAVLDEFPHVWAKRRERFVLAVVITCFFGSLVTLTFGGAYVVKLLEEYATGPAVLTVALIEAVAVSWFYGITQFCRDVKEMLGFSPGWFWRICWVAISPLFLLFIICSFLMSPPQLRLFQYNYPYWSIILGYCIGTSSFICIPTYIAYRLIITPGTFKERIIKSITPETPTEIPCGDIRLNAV

Experiments:
human SERT = human SERT (Homo sapiens, UniProt P31645); settings: read-out: dissociation constant (Kd)
SERT = settings: concentration range typically capped at 10 μM; cited from earlier work
mPFC VIP neurons = test: Patch-clamp recordings of mPFC VIP neurons in slices after in vivo drug injection; settings: firing neurons after ketamine

Compound | Kd (human SERT) | binding of ketamine to SERT (SERT) | neuronal membrane resistance of VIP neurons (mPFC VIP neurons)
[^3H]-imipramine | 2.42 nM | – | –
CNC1(c2ccccc2Cl)CCCCC1=O (stereo not drawn) [ketamine] | – | minimal or weak binding | increase in neuronal membrane resistance
